These are literature values, as cited in patent publication US10336734B2.

The chains behind the UniProt entries cited, without tags or fusion partners.
UniProt Q07912, whole entry: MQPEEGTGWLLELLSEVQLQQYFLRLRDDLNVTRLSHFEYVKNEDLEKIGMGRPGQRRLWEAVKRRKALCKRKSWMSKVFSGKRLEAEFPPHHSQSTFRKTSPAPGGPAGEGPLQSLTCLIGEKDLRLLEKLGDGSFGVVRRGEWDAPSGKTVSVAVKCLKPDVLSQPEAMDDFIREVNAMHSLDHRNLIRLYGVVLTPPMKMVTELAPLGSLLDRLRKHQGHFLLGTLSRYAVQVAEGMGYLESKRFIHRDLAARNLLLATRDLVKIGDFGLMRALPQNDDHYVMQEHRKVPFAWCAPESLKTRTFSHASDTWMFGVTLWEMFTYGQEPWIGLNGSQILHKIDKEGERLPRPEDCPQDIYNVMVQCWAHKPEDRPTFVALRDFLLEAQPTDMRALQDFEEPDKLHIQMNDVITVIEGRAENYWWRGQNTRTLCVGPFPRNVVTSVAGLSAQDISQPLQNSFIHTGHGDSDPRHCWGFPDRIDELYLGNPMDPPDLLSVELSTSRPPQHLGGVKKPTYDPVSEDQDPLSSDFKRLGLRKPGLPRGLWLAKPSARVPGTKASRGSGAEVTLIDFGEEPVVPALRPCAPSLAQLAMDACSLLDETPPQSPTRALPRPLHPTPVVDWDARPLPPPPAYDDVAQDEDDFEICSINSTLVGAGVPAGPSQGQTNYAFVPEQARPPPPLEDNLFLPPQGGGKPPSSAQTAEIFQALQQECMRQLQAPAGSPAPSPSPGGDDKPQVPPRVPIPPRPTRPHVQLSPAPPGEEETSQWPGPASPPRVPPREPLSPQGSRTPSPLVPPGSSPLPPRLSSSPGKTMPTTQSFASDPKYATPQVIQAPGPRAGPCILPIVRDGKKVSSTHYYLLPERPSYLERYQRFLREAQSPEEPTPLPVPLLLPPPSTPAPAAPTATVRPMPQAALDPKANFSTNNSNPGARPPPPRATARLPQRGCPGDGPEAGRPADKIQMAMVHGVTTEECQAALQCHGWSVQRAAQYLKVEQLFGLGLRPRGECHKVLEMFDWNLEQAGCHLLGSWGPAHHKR

Each structure is given as a SMILES string. Read-outs that look alike come from different tables or passages of the source.

Data set [1] has as its target T1, ACK1 (Homo sapiens (Human), UniProt Q07912). The following applies: cited from earlier work.
Data set [2] concerns cell line which is dependent upon ACK1. The following applies: read-out: IC50, growth of ACK1-dependent cell line; cited from earlier work.
The conditions of data set [3]: cited from earlier work.
The target in data set [4] is T1, ACK1. The following applies: read-out: IC50, inhibition of ACK1 autophosphorylation in intact cells; cited from earlier work.

Turning to `CN(C)CCOc1ccc(-c2oc3ncnc(NCC4SCCS4)c3c2-c2ccccc2)cc1`, the Ki (commonly the equilibrium dissociation constant of an inhibitor or competing ligand from its target) on ACK1 [1] (read-out: Ki ACK1) was 0.3 nM. Further, the IC50 (commonly the point on the concentration scale where inhibition reaches its midpoint) in data set [2] was 5 nM. In data set [3] (in vivo), the pharmacokinetic properties entry is reported as “poor pharmacokinetic properties”.
Take `COC(C)(C)CCn1nc(Nc2c(C)cccc2C)c2cnc(Nc3ccccc3)nc21`: the IC50 was 2 nM at ACK1 [1] (read-out: IC50 ACK1 in vitro) and 20 nM at ACK1 [4].
On to `COc1cc(Oc2ccccc2)ccc1-c1nc([C@H]2C[C@@](C)(O)C2)n2ccnc(N)c12` (relative stereo), for which the Oral bioavailability result in data set [3] (mouse models) is “orally bioavailable”.
